Laboratory results taken from US8172395B2, “Medical devices having antimicrobial coatings thereon” (priority 2002, dated 2012).

Conditions: 10 mM sodium phosphate buffer; tested 5, 10, 25 and 50 ppm; inoculum size 5×10^3

## CC[C@H](C)[C@H](N)C(=O)N[C@@H](CC(C)C)C(=O)N1CCC[C@H]1C(=O)N[C@@H](Cc1c[nH]c2ccccc12)C(=O)N[C@@H](CCCCN)C(=O)N[C@@H](Cc1c[nH]c2ccccc12)C(=O)N1CCC[C@H]1C(=O)N[C@@H](Cc1c[nH]c2ccccc12)C(=O)N[C@@H](Cc1c[nH]c2ccccc12)C(=O)N1CCC[C@H]1C(=O)N[C@@H](Cc1c[nH]c2ccccc12)C(=O)N[C@@H](CCCNC(=N)N)C(=O)N[C@@H](CCCNC(=N)N)C(N)=O [Indolicidin]
  MIC: about 5 ppm
